Measured properties of organic chemicals

Values as listed in the OPERA 2.9 repository of K. Mansouri.

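These are experimental values that the OPERA curators gathered from public databases to train and test their QSAR models. A listed value is a point estimate from one report or more. Conditions of the individual experiments are not part of the data. Where a salt, mixture or single isomer is drawn, the source does not say that exactly this form was tested. Some entries may be limits or estimates that an upstream database listed as plain numbers.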

Melting points are in °C.
The boiling point refers to atmospheric pressure (760 mmHg), by the definition of the set.
The octanol-water partition coefficient is given as log10; larger values mean a more lipophilic compound.
Water solubility is log10 of mol/L, nominally at 25 °C; higher is more soluble.
Vapor pressure is log10 of mmHg; the set covers 15 to 30 °C, mostly 20 to 25 °C.
Henry's law constant (air-water partitioning) is log10 of atm·m3/mol, nominally at 25 °C.
fu is the fraction unbound in human plasma, from 0 to 1.
"–" marks a cell with nothing listed here.

| structure (SMILES) | name | mp (°C) | BP (°C) | log Kow | log solubility (log10 mol/L) | vapor pressure (log10 mmHg) | log Henry constant (log10 atm·m3/mol) | fraction unbound |
|---|---|---|---|---|---|---|---|---|
| OC1CCCCCCCCCCC1 | Cyclododecanol | – | – | 4.18 | -3.796 | – | – | – |
| CC(C(=O)O)c1ccc2c(c1)[nH]c1ccc(Cl)cc12 (centres undefined) | Carprofen | – | – | 3.8 | -4.859 | – | – | – |
| C[C@@H]1C[C@H]2[C@@H]3C[C@H](F)C4=CC(=O)C=C[C@]4(C)[C@@]3(F)[C@@H](O)C[C@]2(C)[C@@]1(O)C(=O)S | – | 232.5 | – | 1.298 | -3.86 | – | – | – |
| C=CC(=O)OCCCCOC(=O)Oc1ccc(C(=O)c2ccccc2)cc1 | – | -42.1 | – | 3.7 | -5.42 | -4.508 | – | – |
| CCCCCCCCCc1ccc(OCC(=O)O)cc1 | 4-nonylphenoxy acetic acid (NP1EC) | – | – | – | -3.843 | -4.727 | – | – |
| CCCCC(CC)COC(=O)CCc1cc(C(C)(C)C)c(O)c(C(C)(C)C)c1 (centres undefined) | 2-Ethylhexyl 3-(3,5-di-tert-butyl-4-hydroxyphenyl)propionate | -44.2 | – | 7.5 | -7.115 | -6.397 | – | – |
| CC(C)(COC(=O)c1ccccc1)COC(=O)c1ccccc1 | Neopentyl glycol dibenzoate | 46.5 | – | 4.7 | -5.43 | – | – | – |
| CCCCCCCCCCCCCCCCCCOCCCN(C)C | Stearoxypropyl dimethylamine | 26.85 | – | 6.34 | -6.852 | -6.87 | – | – |
| Cc1c(O)cccc1O | 2-Methyl-1,3-benzenediol | – | – | 0.183 | – | -3.894 | – | – |
| Nc1ccn([C@@H]2O[C@H](CO)[C@@H](O)C2(F)F)c(=O)n1 | Gemcitabine | – | – | – | -1.072 | – | – | 0.995 |
| O=S(=O)([O-])CCCSc1nc2ccccc2s1.[Na+] | – | 320 | – | -1.7 | – | – | – | – |
| CCC[C@H]1CC[C@H]([C@H]2CC[C@H](C(=O)O)CC2)CC1 | – | – | – | 6.44 | -5.323 | -7.227 | – | – |
| CCN(CC)c1ccc(C(=N)c2ccc(N(CC)CC)cc2)cc1.Cl | – | – | – | 1.757 | -2.371 | – | – | – |
| C=CC(=O)OCCOCCOC(C)OCC(COC(C)OCCOCCOC(=O)C=C)(COC(C)OCCOCCOC(=O)C=C)NC(=O)COc1ccc2sc3ccccc3c(=O)c2c1 (centres undefined) | Omnipol 3TX | – | – | – | -5.289 | -7.998 | – | – |
| CCOc1ccccc1NC(=O)c1cc2ccccc2cc1O | 3-Hydroxy-2-naphtho-o-phenetidide | – | – | 2.87 | -5.187 | – | – | – |
| C=C(Cl)C(Cl)CCl (centres undefined) | 2,3,4-Trichloro-1-butene | -52 | – | 2.4 | – | – | – | – |
| CC1=C(C(=O)Nc2ccccc2)S(=O)CCO1 (centres undefined) | Carboxin sulfoxide | – | – | – | -2.631 | – | -6.353 | – |
| CCCCCCCCCCCCCCCCCCN(C)C | N,N-Dimethyl-1-octadecanamine | – | – | – | -4.628 | -5.023 | – | – |
| CC1(C)O[C@@H]2C[C@H]3[C@@H]4C[C@H](F)C5=CC(=O)C=C[C@]5(C)[C@H]4[C@@H](O)C[C@]3(C)[C@]2(C(=O)CO)O1 | Flunisolide | – | – | 1.1 | -4.065 | – | – | – |
| COS(=O)(=O)[O-].Cc1ccc(Nc2ccc(NCCC[N+](C)(C)C)c3c2C(=O)c2ccccc2C3=O)cc1 | – | 200 | – | -2.3 | – | – | – | – |
| O=C(c1ccccc1)c1ccc(O)cc1 | 4-Hydroxybenzophenone | – | – | – | -3.166 | -6.618 | – | – |
| CC(=O)O[C@@]1(C(C)=O)CC[C@@H]2[C@H]3CCC4=CC(=O)CC[C@@]4(C)[C@@H]3CC[C@]21C | Hydroxyprogesterone acetate | – | – | 3.2 | -5.567 | -12.82 | – | – |
| CC(C)CCN | 3-Methyl-1-butanamine | – | – | – | 0.759 | 1.556 | – | – |
| CC1=NN(c2cccc(S(=O)(=O)[O-])c2)C(=O)C1/N=N/c1cc(Cl)c(Cl)cc1S(=O)(=O)[O-].[Ca+2] (stereo partly drawn) | – | – | – | -0.9 | -3.839 | – | – | – |
| CCC(=O)CC(C)CC (centres undefined) | 5-Methyl-3-heptanone | -56.7 | – | 2.76 | -1.728 | 0.301 | – | – |
| CCN(CC)c1ccc(N=Nc2c(Cl)cc([N+](=O)[O-])cc2[N+](=O)[O-])c(NC(C)=O)c1 | – | 172 | – | 5.8 | -7.116 | – | – | – |
| Nc1ncnc2c1ncn2[C@@H]1O[C@H](CO)[C@@H](OP(=O)(O)O)[C@H]1O | 3'-Adenylic acid | – | – | -1.453 | -2.842 | – | – | – |
| CC(CCO)CCc1ccccc1 (centres undefined) | 3-Methyl-5-phenylpentan-1-ol | – | 315.9 | – | – | -3.523 | – | – |
| CN(C)C[C@H](O)[C@@H](O)[C@H](O)[C@H](O)CO (stereo in doubt) | N,N-Dimethyl-D-glucamine | 90.3 | – | -1.8 | – | -5.272 | – | – |
| Cc1ccc(Nc2ccc3c4c(cc(=O)n3C)-c3ccccc3C(=O)c24)cc1 | – | 268.2 | – | 4.689 | -8.689 | – | – | – |
| O=C(O)C(Cc1ccccc1)NC(O)=Nc1ccccc1Cl (centres undefined) | N-{[(2-Chlorophenyl)imino](hydroxy)methyl}phenylalanine | – | – | 0.74 | – | -6.644 | – | – |
| CC(=O)CSc1ccc(Cl)cc1 | (4-Chlorophenylthio)acetone | – | – | – | -2.679 | -2.937 | – | – |
| CC1(C)[C@H](C(=O)Cl)[C@@H]1/C=C(\Cl)C(F)(F)F (relative stereo) | – | -14.4 | 215.6 | – | – | – | – | – |
| COc1ccc(CC2CC2)cc1 | 1-(Cyclopropylmethyl)-4-methoxybenzene | -23.15 | – | – | -3.541 | -2.072 | – | – |

4 of these entries, quoted again:

{"smiles": "CC(CCO)CCc1ccccc1", "stereo": "centres undefined", "name": "3-Methyl-5-phenylpentan-1-ol", "BP (°C)": "315.9", "vapor pressure (log10 mmHg)": "-3.523"}
{"smiles": "OC1CCCCCCCCCCC1", "name": "Cyclododecanol", "log Kow": "4.18", "log solubility (log10 mol/L)": "-3.796"}
{"smiles": "CC(=O)O[C@@]1(C(C)=O)CC[C@@H]2[C@H]3CCC4=CC(=O)CC[C@@]4(C)[C@@H]3CC[C@]21C", "name": "Hydroxyprogesterone acetate", "log Kow": "3.2", "log solubility (log10 mol/L)": "-5.567", "vapor pressure (log10 mmHg)": "-12.82"}
{"smiles": "COS(=O)(=O)[O-].Cc1ccc(Nc2ccc(NCCC[N+](C)(C)C)c3c2C(=O)c2ccccc2C3=O)cc1", "mp (°C)": "200", "log Kow": "-2.3"}